Experiment: Plasma and brain concentrations of drugs at the end of the audiogenic seizure experiment (LC-MS)
Format: in vivo, mouse
Settings: oral gavage, mean ± SEM
Method: At the end of the experiment, all mice were euthanized by CO2 inhalation to assess plasma and brain concentrations of drugs and the absence of pharmacokinetic interaction. Briefly, blood was sampled from the vena cava caudalis with a syringe pre-filled with EDTA (ethylenediamine tetraacetic acid) as anticoagulant and centrifuged to yield plasma (for 10 minutes, at 4° C. and 5000 rpm (rounds per minute)). Brain was sampled and homogenized into one volume of cold phosphate buffer (pH 7.4). Following extraction with methanol, concentrations of the compound in plasma and brain were determined using liquid chromatography coupled to mass spectrometry.
Different combination efficacy experiments are performed. Three different first line antiepileptic drugs (i.e. valproic acid (VPA), levetiracetam (LEV) or lamotrigine (LTG)), referred as anti-epileptic drugs (AEDs) below) were used in combination with N-[1-(5-Cyano-pyridin-2-ylmethyl)-1H-pyrazol-3-yl]-2-[4-(1-trifluoromethyl-cyclopropyl)-phenyl]-acetamide (COMPOUND 1). Each experiment consists of four treatment groups: • 1. Vehicle (10% Polyethylene glycol400 (PEG400)/90% methylcellulose (0.5% in water; MC0.5%)), 3 h before exposure to the auditory stimulus+vehicle, 1 h before exposure to the auditory stimulus; • 2. COMPOUND 1 (in 10% PEG400/90% MC0.5%), 3 h before exposure to the auditory stimulus+vehicle, 1 h before exposure to the auditory stimulus; • 3. Vehicle, 3 h before exposure to the auditory stimulus+AED (in 10% PEG400/90% MC0.5%), 1 h before exposure to the auditory stimulus; and • 4. COMPOUND 1 (in 10% PEG400/90% MC0.5%), 3 h before exposure to the auditory stimulus+AED (in 10% PEG400/90% MC0.5%), 1 h before exposure to the auditory stimulus.

Compound | Plasma concentration total (analyte VPA, vehicle 3 h + VPA 100 mg/kg 1 h before stimulus) | Plasma concentration total (analyte VPA, vehicle 3 h + VPA 200 mg/kg 1 h before stimulus) | Plasma concentration total (analyte LEV, vehicle 3 h + LEV 3 mg/kg 1 h before stimulus) | Plasma concentration total (analyte LEV, vehicle 3 h + LEV 10 mg/kg 1 h before stimulus) | Plasma concentration total (analyte LEV, vehicle 3 h + LEV 50 mg/kg 1 h before stimulus)
CCCC(CCC)C(=O)O [VPA, 2-propylpentanoic acid] | 68144 ± 6868 ng/mL | 108600 ± 9893 ng/mL |  |  | 
CC[C@@H](C(N)=O)N1CCCC1=O [LEV, (S)-2-(2-oxopyrrolidin-1-yl)butanamide] |  |  | 1208 ± 76 ng/mL | 4007 ± 199 ng/mL | 24156 ± 2669 ng/mL
